## Binding of CDR-mutated scFvs to a peptide of the spike HR2 region

Binding partner: SARS-CoV-2 spike HR2 peptide, sequence PDVDLGDISGINAS.

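Phage display of a naive human antibody library on the peptide gave the parent. The variants were designed computationally from a first round of random CDR variants and then made and measured. Several design methods are mixed in this list. The scFvs were displayed on barcoded MATa yeast, the peptide on MATalpha yeast. The frequency of each diploid, read from paired DNA barcodes, reflects how well the two displayed proteins bind. Read counts were normalised to the haploid input and turned into Kd by a linear fit to BCL2-family pairs of known affinity, for each replicate. Each pool was mated in six replicate cultures.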

Parent: Ab-14, a human scFv built as VH, the linker GGGGSGGGGSGGGGS, VL. Only the CDRs of the light chain vary.
VH: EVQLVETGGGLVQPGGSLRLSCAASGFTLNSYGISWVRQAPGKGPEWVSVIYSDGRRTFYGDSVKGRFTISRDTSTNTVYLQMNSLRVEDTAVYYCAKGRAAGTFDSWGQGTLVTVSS
VL: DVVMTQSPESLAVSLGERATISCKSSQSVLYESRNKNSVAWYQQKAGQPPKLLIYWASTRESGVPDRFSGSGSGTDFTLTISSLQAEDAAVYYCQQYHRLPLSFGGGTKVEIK

The parent's light chain CDRs are KSSQSVLYESRNKNSVA, WASTRES, QQYHRLPLS; each variant's own CDRs replace them letter for letter.
Scale: log10 of Kd in nM, estimated from mating counts; low values are strong binders.
Replicates are averaged; those with no signal do not enter the mean.
"not detected" marks a missing value. The strain was present, yet no cells mated with the target were sequenced in any replicate, which points to weak or no binding.
Order: sorted from the lowest average up, undetected variants last.
In the paper, a design with two or fewer of six values counts as a poor binder.
Three control strains display no target. For all light chain designs, 4% of the pairings with them gave a signal, with a median of 2.64 and one signal in twenty below 1.59, so weak values seen in few replicates may be background.
A sequence measured in both rounds can read differently, since the two assays cover different ranges.
The parent sequence was in this pool as ten entries: three were never detected, three once, and four in most replicates, with averages from 0.34 to 2.37.

CDR-L1	CDR-L2	CDR-L3	mean, log10 nM	replicates with signal
KLSQSVLYEDRNKNNVA	SASTRES	QQYHRLPLS	-0.68	6 of 6
KLSMSVLMEQRNKNSVA	SANTREE	QQYHRLPLS	-0.35	6 of 6
KVSQSVLYESRNKNSVA	QASTRES	QQYHRLPLQ	-0.31	6 of 6
KISQATNYLSRVMNSVA	DNSTRES	QQYFRLPLS	-0.28	6 of 6
KLSQSELMESRNKNSVA	NASTRES	QQYHRLPLS	-0.27	6 of 6
KDSQEVLYESRNKENVA	NASTREV	QQYHRLPLS	-0.26	6 of 6
KISQSALMESRNKNSVA	NASKRES	QQYHRLPLS	-0.15	6 of 6
KLSQSDLYESRNKNAVA	EASQRES	QQYHRLPLS	-0.13	6 of 6
SLSQDALYESRNKNSVA	NASTREV	QQYHRLPLS	-0.08	6 of 6
KLSMSVLFESRNKNSVA	NASTRES	QQYHRLPLS	-0.08	6 of 6
KFMMSGEYQMHEQHNVA	QTEMKCK	QQYFRLPLT	-0.08	6 of 6
KITQLVMETSKNRNNVA	EVSTLPD	QQYHRLPLS	0.01	6 of 6
KLSQMVLYESRNKNSVA	DASTRES	QQYHRLPLS	0.02	6 of 6
KVVKAKSEGDRHAANVA	NANKASD	QQYYRLPLA	0.07	6 of 6
KSSYSYLYESRNKNSVA	EASTRES	QQYHRLPLM	0.08	6 of 6
HQSGSVLYESRNKNSVA	NGSTREE	QQYHRLPLS	0.09	6 of 6
KLSQSKLYESRNKNSVA	NASTRMS	QQYHRLPLS	0.14	6 of 6
KVQQSVLYESRNKNSVA	NGSTRES	QQYHRLPLS	0.15	6 of 6
KIIQSGPYESRNKNSVA	SASTRSP	QQYHRLPLS	0.15	6 of 6
KIGMTLNQLMHKKNNVA	DLVTREN	QQYYRLPLS	0.24	6 of 6
KSSQSVLPEHTNKNSVA	WASTRVS	QQYHRLPLS	0.28	6 of 6
KYEFSELELSRNSNSVA	NASTREE	QQYHRLPLS	0.29	6 of 6
KILGVTNGISKNKNSVA	EQSTRES	QQYNRLPLS	0.31	6 of 6
KSSWSVEYEDRASNSVA	NASQRLW	QQYHRLPLS	0.31	6 of 6
NMHNMCYQYENYGNSIA	QAQLREN	QQYYRLPFT	0.38	6 of 6
SISGFMKSLAAHSNSVA	DMTNRES	QQYDRLPLS	0.43	6 of 6
MISQLMNMGQFAINSVA	QASIRNE	QQYDRLPLE	0.45	6 of 6
KSGQSVLNESRNHNSVA	AASTRES	QQYHRLPLS	0.46	6 of 6
KLDMNELGQSQNKNCVA	DSAQKCS	QQYSRLPLS	0.50	6 of 6
KISQMVRVGSTASNSIA	EEVTRAK	QQYHRLPLS	0.54	6 of 6
TISQMTSLFSQSINNVA	EVSMREK	QQYDRLPLA	0.69	6 of 6
MISQVMNTLTRHGNNVA	DLDERED	QQYFRLPLS	0.85	6 of 6
KISGMSNHQSSVANNVA	ENVTRVN	QQYFRLPLI	1.15	6 of 6
ELMVFPTNAGMTQANIA	DASHSTD	QQYGRLPLM	1.19	6 of 6
KSSQSVLYESRNENSVA	WAKTRES	QQYRRLPLI	1.20	2 of 6
KIGQQVTYESTMKNAIA	QMTTREE	QQYHRLPLS	1.22	6 of 6
KMTTNLGHQASRKNSIA	EADMVAC	QQYMRLPLI	1.27	6 of 6
ALREDFYQEQVEMSAIA	DGEHLNN	QQYSMLPLS	1.31	6 of 6
KSSQSVLFESRNKNSVA	DASTRES	QQYHSLPLS	1.32	6 of 6
TIDQYTSYGNGENWAIA	DVSIKDY	QQYARLPLL	1.38	6 of 6
HLSFPWQLGHDSTNAVA	NDSTLMT	QHYNRLPLS	1.38	6 of 6
KSSQSDLYESRNGNNVA	NASTRMD	QQYHRLPLS	1.48	6 of 6
KMSQSVLYEERNKNSVA	WASTRLI	QQYHRLPLS	1.50	6 of 6
KQSQSVPMGERNKNSVA	MASYRES	QQYHRLPLS	1.50	6 of 6
KSSQSVLFESRNKNQVA	DASTRES	QQNHRMPLS	1.55	6 of 6
ILTGMLNHAGQQQHSIA	HGGIKIE	QQYNRLPLA	1.72	6 of 6
IFSQSVLMGNLTKNSVA	QASTRFD	QQYHRLPLI	1.76	6 of 6
KISMLINMTFEASNNVA	EMATREQ	QQYNRLPLS	1.76	6 of 6
KSLWSVYYESNNKNSVA	HASTRED	QQYHRLPLS	1.77	6 of 6
MSSQSMLYESRNKNSVA	WASTRES	QQRHRLPLS	1.89	2 of 6
QIALSEEEVGIQKNSIA	ENTVRPA	QQYLRLPLH	1.93	5 of 6
MISQLYNFGTFAINSVA	QAETREN	QQYDRLPLT	1.98	5 of 6
KSSQSVLYESVNKNSVA	YASTRED	QQGHRLPLS	2.06	5 of 6
TLTQVTMVESYNKNSVA	QAETRLE	QDYHRLPLS	2.97	2 of 6
KSSQSVLYESRNKNSVA	WASTRES	QQYHRLPLP	3.61	1 of 6
MIEIIQDGYDEMRSAIA	DTSLVRM	QQYYRLPLM	not detected	0 of 6
KSSGSVYYQSRNKNSVA	RAKTRES	QQYHRLPLS	not detected	0 of 6
KSSQSVLYESRNKNSVA	KASRRES	QCYHRLPLS	not detected	0 of 6

The last 7 entries again:

CDR-L1	CDR-L2	CDR-L3	mean, log10 nM	replicates with signal
MISQLYNFGTFAINSVA	QAETREN	QQYDRLPLT	1.98	5 of 6
KSSQSVLYESVNKNSVA	YASTRED	QQGHRLPLS	2.06	5 of 6
TLTQVTMVESYNKNSVA	QAETRLE	QDYHRLPLS	2.97	2 of 6
KSSQSVLYESRNKNSVA	WASTRES	QQYHRLPLP	3.61	1 of 6
MIEIIQDGYDEMRSAIA	DTSLVRM	QQYYRLPLM	not detected	0 of 6
KSSGSVYYQSRNKNSVA	RAKTRES	QQYHRLPLS	not detected	0 of 6
KSSQSVLYESRNKNSVA	KASRRES	QCYHRLPLS	not detected	0 of 6

Source: Li et al. 2023 (doi:10.1038/s41467-023-39022-2), MIT Lincoln Laboratory and A-Alpha Bio; data file from the FLAb repository.